Consider one compound from US20090318509A1, “Oxime Derivatives as Inhibitors of Macrophage Migration Inhibitory Factor” (priority 2006, published 2009).

Protein sequences, listed by entry. Tags and fused reporters are not part of them. Residues count along the entry.
UniProt P14174, 2-115 limits assumed: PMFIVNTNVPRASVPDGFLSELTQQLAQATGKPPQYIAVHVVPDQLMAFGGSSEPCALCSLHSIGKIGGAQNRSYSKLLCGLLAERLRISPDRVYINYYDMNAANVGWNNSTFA

This experiment deals with MIF (Homo sapiens, UniProt P14174). The experiment in a line: MIF dopachrome tautomerase activity inhibition. The class given is biochemical. Conditions: read-out: IC50 of MIF dopachrome tautomerase activity.

Usually IC50 stands for the concentration needed to halve the response being measured. `O=C(O/N=C/c1ccc(O)c(F)c1)C1CCCCC1`: the half-inhibitory concentration (IC50) came to 900 nM.
